## Measured properties of organic chemicals

Data: OPERA 2.9 data sets, kmansouri/OPERA on GitHub.

Melting points are in °C. Boiling points are in °C, nominally at 760 mmHg. logP is the log10 of the octanol-water partition coefficient; higher is more lipophilic. Water solubility is log10 of mol/L, nominally at 25 °C; higher is more soluble. Vapor pressure is log10 of mmHg; the set covers 15 to 30 °C, mostly 20 to 25 °C. fu is the fraction unbound in human plasma, from 0 to 1. Clint is human hepatic intrinsic clearance in µL/min per million cells; 0 means that no clearance was seen. Cells with "n/a" have no entry in this list.

CC(C)=CCO is reported with log Kow 0.91 and log vapor pressure 0.196 (log10 mmHg). CN1CCCCC1CCO (stereo not drawn) has log Kow 0.72 and log vapor pressure -1.493 (log10 mmHg). Listed for CCOC(=O)C1(OC(=O)Cc2c(C)cc(C)cc2C)CCCC1: log solubility -4.637 (log10 mol/L) and log vapor pressure -5.496 (log10 mmHg). The entry for CCOC(=O)[C@@H]1C2CCC(CC2)[C@H]1Nc1nc(Cl)ncc1F lists melting point 129.5 °C and log Kow 3.6 and log solubility -4.235 (log10 mol/L) and log vapor pressure -7.693 (log10 mmHg). CCCCOCCOCCOCOCCOCCOCCCC has melting point -34.65 °C and boiling point 285.2 °C and log vapor pressure -6.135 (log10 mmHg). CC(C)c1ccc2cc(C(C)C)ccc2c1 has log solubility -4.29 (log10 mol/L) and log vapor pressure -2.426 (log10 mmHg).

For CC(C)CCCCCCCCCCOC(=O)CC(C)CC(C)(C)C (stereo not drawn) the data give log solubility -11.13 (log10 mol/L) and log vapor pressure -4.997 (log10 mmHg). Listed for CCCCCCCCCCCCOC(=O)C(CC)CCCC (stereo not drawn): melting point -35.4 °C and boiling point 354.6 °C and log solubility -6.194 (log10 mol/L) and log vapor pressure -4.71 (log10 mmHg). CC(C)=CCCC(C)CC#N (stereo not drawn) has log Kow 3.213 and log solubility -3.108 (log10 mol/L) and log vapor pressure -1.443 (log10 mmHg). Listed for C=C(C)C(=O)OC(=O)C(=C)C: log Kow 0.93 and log vapor pressure -0.171 (log10 mmHg). Listed for CC(=O)CC(=O)Nc1ccc2[nH]c(=O)[nH]c2c1: log Kow -0.1 and log solubility -2.523 (log10 mol/L). CC(C)(C)c1ccc(C=O)cc1 has log Kow 3.1 and log solubility -3.109 (log10 mol/L) and log vapor pressure -1.519 (log10 mmHg).

The entry for C=C[Si](C)(OC)OC lists boiling point 103.9 °C and log vapor pressure 1.479 (log10 mmHg). Listed for C=C(C)C(=O)OCCCCCCCC: boiling point 239.5 °C and log Kow 5.24 and log vapor pressure -1.524 (log10 mmHg). For Cc1cc(S(=O)(=O)O)c(N)cc1Cl the data give melting point 320 °C and log Kow -0.97 and log solubility -2.406 (log10 mol/L). The entry for CCc1cccc2cc(C(O)CNC(C)(C)C)oc12 (stereo not drawn) lists fraction unbound 0.1187 and Clint 11.73 µL/min/10^6 cells. N#CCC(=O)Nc1cccc(Cl)c1 is reported with melting point 140 °C and log solubility -2.626 (log10 mol/L). For C=C[Si](C)(C)Cl the data give melting point -20.07 °C and log vapor pressure 1.904 (log10 mmHg).

For COc1ccccc1NC(=O)C(N=Nc1ccc(-c2ccc(N=NC(C(C)=O)C(=O)Nc3ccccc3OC)c(Cl)c2)cc1Cl)C(C)=O (stereo not drawn) the data give melting point 323 °C and log solubility -8.424 (log10 mol/L). CC(C)CCC(C)Nc1ccc(N)cc1 (stereo not drawn) is reported with melting point 51.5 °C and log Kow 3.5 and log vapor pressure -4.401 (log10 mmHg). CCCCCCCC(=O)N(C)C has melting point -25.5 °C and log Kow 2.59 and log solubility -1.6 (log10 mol/L) and log vapor pressure -1.648 (log10 mmHg). The entry for O=C([C@H]1CC[C@H](C(=O)N(CCO)CCO)CC1)N(CCO)CCO lists melting point 178.2 °C and log vapor pressure -5.598 (log10 mmHg). NS(=O)(=O)c1ccc(N2CCC(c3ccc(Cl)cc3)=N2)cc1 is reported with log Kow 2.56 and log solubility -6.225 (log10 mol/L). The entry for CCOC(O)=NS(=O)(=O)c1ccc(C)cc1 lists melting point 85 °C and boiling point 272 °C and log Kow 1.7 and log solubility -2.243 (log10 mol/L) and log vapor pressure -1.548 (log10 mmHg).

CCO[Si](CC(C)C)(OCC)OCC is reported with melting point -72 °C and log solubility -3.017 (log10 mol/L) and log vapor pressure -0.521 (log10 mmHg). Listed for CCCCC(CC)COC(=O)/C=C(/C)C(=O)OCC(CC)CCCC (stereo partly drawn): boiling point 271 °C and log Kow 7.63. The entry for CC(O)CC(C)(C)c1ccccc1 (stereo not drawn) lists melting point -59 °C and log Kow 2.815 and log solubility -2.147 (log10 mol/L) and log vapor pressure -1.178 (log10 mmHg). Brc1cc(Br)c(Oc2c(Br)cc(Br)c(Br)c2Br)cc1Br is reported with log solubility -8.683 (log10 mol/L) and log vapor pressure -8.455 (log10 mmHg). Listed for COc1cc(-c2cc(OC)cc(C(C)(C)C)c2O)c(O)c(C(C)(C)C)c1: log Kow 6.09 and log solubility -6.776 (log10 mol/L). The entry for CCCCOC(=O)C1CCC(O)CC1 (stereo not drawn) lists boiling point 274.5 °C and log solubility -1.806 (log10 mol/L) and log vapor pressure -3.498 (log10 mmHg).

A selection of 5 entries from above:

| compound | melting point (°C) | boiling point (°C) | log Kow | log solubility (log10 mol/L) | log vapor pressure (log10 mmHg) | fraction unbound | Clint (µL/min/10^6 cells) |
|---|---|---|---|---|---|---|---|
| C=C[Si](C)(C)Cl | -20.07 | n/a | n/a | n/a | 1.904 | n/a | n/a |
| C=C[Si](C)(OC)OC | n/a | 103.9 | n/a | n/a | 1.479 | n/a | n/a |
| COc1ccccc1NC(=O)C(N=Nc1ccc(-c2ccc(N=NC(C(C)=O)C(=O)Nc3ccccc3OC)c(Cl)c2)cc1Cl)C(C)=O (stereo not drawn) | 323 | n/a | n/a | -8.424 | n/a | n/a | n/a |
| CC(C)(C)c1ccc(C=O)cc1 | n/a | n/a | 3.1 | -3.109 | -1.519 | n/a | n/a |
| CC(C)CCC(C)Nc1ccc(N)cc1 (stereo not drawn) | 51.5 | n/a | 3.5 | n/a | -4.401 | n/a | n/a |

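The numbers are reported measurements, compiled and curated for the OPERA QSAR suite. The files give a single number for a compound and property, which may rest on several reports. Method, purity and exact conditions of the single measurements are not given. A value may pool stereoisomers or salt forms, and the file does not say which form was measured. Some upstream entries may be estimates or bounds without being marked so.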